Measurements as given in PMC8671752, “Effects of ex vivo Extracorporeal Membrane Oxygenation Circuits on Sequestration of Antimicrobial Agents” (Frontiers in Medicine, 2021).

Columns and labels:
[1] = SD
[2] = pH 7.25; SD
[3] = SD; remark: listed apart in the source

In the case of teicoplanin, the “Drug recovery (%) from control group at 24 h” value [1] is reported as 89.06 (14.40) %, the “Mean drug recovery, Control-3 h (Maquet experiment)” value [1] is reported as 101% (5%) and the “Mean drug recovery, Control-6 h (Maquet experiment)” value [1] is reported as 96% (0%). For the same substance, the “Mean drug recovery, Control-12 h (Maquet experiment)” value [1] was 88% (5%), the “Mean drug recovery, Control-24 h (Maquet experiment)” value [1] was 83% (14%) and the “Drug recovery (%) from circuits at 24 h” value [2] was 66.64 (24.37) %. The “Mean drug recovery, Maquet circuit, 5 min” value [3] was 97% (2%), the “Mean drug recovery, Maquet circuit, 15 min” value [3] was 98% (2%) and the “Mean drug recovery, Maquet circuit, 30 min” value [3] was 100% (5%). For the same substance, the “Mean drug recovery, Maquet circuit, 1 h” value [3] was 102% (3%), the “Mean drug recovery, Maquet circuit, 3 h” value [3] was 93% (10%) and the “Mean drug recovery, Maquet circuit, 6 h” value [3] was 91% (8%). The “Mean drug recovery, Maquet circuit, 12 h” value [3] was 86% (5%) and the “Mean drug recovery, Maquet circuit, 24 h” value [3] was 80% (13%).
